US8198438B2, “Pyrrolotriazine kinase inhibitors” (Bristol-Myers Squibb Company, priority 2007, dated 2012)

Amino acid sequences for entries named in this document (tags omitted). Residues count along the entry.
UniProt P08069, 31-1367: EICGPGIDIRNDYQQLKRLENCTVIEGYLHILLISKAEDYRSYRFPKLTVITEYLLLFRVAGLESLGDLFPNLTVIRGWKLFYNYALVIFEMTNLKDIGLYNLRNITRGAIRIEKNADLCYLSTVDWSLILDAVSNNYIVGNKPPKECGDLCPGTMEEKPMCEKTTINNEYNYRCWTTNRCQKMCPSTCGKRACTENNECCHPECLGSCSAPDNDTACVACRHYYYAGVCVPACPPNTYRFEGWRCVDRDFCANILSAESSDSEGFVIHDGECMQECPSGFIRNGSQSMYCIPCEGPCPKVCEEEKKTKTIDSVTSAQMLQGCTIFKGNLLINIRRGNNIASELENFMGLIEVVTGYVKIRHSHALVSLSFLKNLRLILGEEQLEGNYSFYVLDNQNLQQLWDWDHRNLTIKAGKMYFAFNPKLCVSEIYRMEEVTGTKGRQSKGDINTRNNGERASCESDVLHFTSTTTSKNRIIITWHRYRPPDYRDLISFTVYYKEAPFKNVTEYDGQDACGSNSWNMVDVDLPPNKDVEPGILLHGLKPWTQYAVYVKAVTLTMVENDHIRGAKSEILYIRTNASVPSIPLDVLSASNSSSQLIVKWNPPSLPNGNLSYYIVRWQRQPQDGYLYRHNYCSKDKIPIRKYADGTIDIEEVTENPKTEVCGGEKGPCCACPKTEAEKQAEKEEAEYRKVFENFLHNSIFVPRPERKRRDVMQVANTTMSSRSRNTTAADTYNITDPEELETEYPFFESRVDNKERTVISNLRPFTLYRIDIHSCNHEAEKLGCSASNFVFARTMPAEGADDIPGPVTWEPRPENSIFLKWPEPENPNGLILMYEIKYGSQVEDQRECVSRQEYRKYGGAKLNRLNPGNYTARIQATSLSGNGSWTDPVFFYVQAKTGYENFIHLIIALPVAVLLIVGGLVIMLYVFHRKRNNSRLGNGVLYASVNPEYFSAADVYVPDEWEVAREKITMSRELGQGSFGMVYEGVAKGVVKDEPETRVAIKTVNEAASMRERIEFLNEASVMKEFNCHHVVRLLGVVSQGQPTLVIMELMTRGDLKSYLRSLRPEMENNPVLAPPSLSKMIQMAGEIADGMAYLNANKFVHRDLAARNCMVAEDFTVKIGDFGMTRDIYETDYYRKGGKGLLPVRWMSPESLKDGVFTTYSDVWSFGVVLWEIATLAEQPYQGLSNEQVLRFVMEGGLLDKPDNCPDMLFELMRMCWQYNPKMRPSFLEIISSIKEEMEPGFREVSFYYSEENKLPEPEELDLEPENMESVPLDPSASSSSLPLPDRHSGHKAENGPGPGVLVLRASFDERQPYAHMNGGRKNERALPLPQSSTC

Biological target: IGF1-receptor (Homo sapiens, UniProt P08069)
Assay: IGF1-Receptor Tyrosine Kinase Assay
Format: biochemical
Details: ATP 25 μM; IGF1-Receptor 14 nM; Caliper LabChip 3000; read-out: IGF1R IC50
Protocol: D. IGF1-Receptor Tyrosine Kinase Assay
The assays were performed in U-bottom 384-well plates. The final assay volume was 30 μl prepared from 15 μl additions of enzyme and substrates (fluoresceinated IGF1R substrate peptide and ATP) and test compounds in assay buffer (100 mM HEPES pH 7.4, 10 mM MnCl2, 0.015% Brij35 and 4 mM DTT). The reaction was initiated by the combination of IGF1-receptor with substrates and test compounds. The reaction was incubated at room temperature for 60 min. and terminated by adding 30 μl of 35 mM EDTA to each sample. The reaction mixture was analyzed on the Caliper LabChip 3000 by electrophoretic separation of the fluorescent substrate and phosphorylated product. Inhibition data were calculated by comparison to no enzyme control reactions for 100% inhibition and vehicle-only reactions for 0% inhibition. The final concentration of reagents in the assays is ATP, 25 μM; FL-peptide, 1.5 μM; IGF1-Receptor, 14 nM; and DMSO, 1.6%. Dose response curves were generated to determine the concentration required inhibiting 50% of kinase activity (IC50). Compounds were dissolved at 10 mM in dimethylsulfoxide (DMSO) and evaluated at eleven concentrations, each in duplicate. IC50 values were derived by non-linear regression analysis

Structure (SMILES): O=C(c1ccc(F)nc1)N1CCC[C@H]1c1nc(Nc2cc(C3CC3)[nH]n2)c2cccn2n1 [Example 1, (S)-(2-(4-(5-Cyclopropyl-1H-pyrazol-3-ylamino)pyrrolo[1,2-f][1,2,4]triazin-2-yl)pyrrolidin-1-yl)(6-fluoropyridin-3-yl)methanone]
- IC50: 7 nM
